Experimental data: patent publication US20230071422A1 (BEIJING WISDOMAB BIOTECHNOLOGY, published 2023)

Molecular target: T1, extracellular region of human CD123 subtype 1 with C-terminal His tag (hCD123-SP1-his) (human (Homo sapiens), UniProt P26951 19-305)
T1 construct: Recombinant, expressed in HEK293 cells
T1 sequence: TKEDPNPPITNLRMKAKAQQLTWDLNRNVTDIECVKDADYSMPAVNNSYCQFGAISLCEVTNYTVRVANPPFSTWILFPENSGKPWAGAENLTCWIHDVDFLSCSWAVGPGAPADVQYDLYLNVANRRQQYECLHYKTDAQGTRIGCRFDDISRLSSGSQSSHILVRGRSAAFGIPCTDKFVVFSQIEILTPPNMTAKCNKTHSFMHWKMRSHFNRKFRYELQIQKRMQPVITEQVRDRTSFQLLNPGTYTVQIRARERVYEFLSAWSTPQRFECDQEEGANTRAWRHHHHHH
Test: SPR, Biacore X100; antibody captured by anti-human IgG (Fc) on CM5, hCD123-SP1-his as analyte, 1:1 model, 25 C
Description: The affinity of anti-CD123 antibodies was determined by surface plasmon resonance using Biacore X100. Related reagents and consumables such as Amino Conjugation Kit (BR-1000-50), Human Antibody Capture Kit (BR-1008-39), CM5 Chip (BR100012) and 10×HBS-EP (BR100669) buffer with pH 7.4 were all purchased from GE healthcare. According to the instructions in the kits, 1-Ethyl-3-(3-dimethylaminopropyl) carbodiimide hydrochloride (EDC) and N-Hydroxysuccinimide (NHS) was used to activate the surface of the carboxylated CM5 chip, and the anti-human IgG (Fc) antibody (capture antibody) was diluted to 25 μg/mL with 10 mM, pH5.0 sodium acetate, followed by an injection with a flow rate at 10 μL/min to achieve a coupling volume of approximately 10,000 response units (RU). Following the injection of the capture antibody, 1 M ethanolamine was injected to block unreacted groups. […] The chip surface was regenerated by injecting 3M MgCl₂ solution at 10 μL/min for 30 s. Association rates (Kₒₙ) and dissociation rates (Koff) were calculated from association and dissociation sensorgrams fitted by a 1:1 binding model using Biacore X100 evaluation software version 2.0.1. The dissociation equilibrium constant (KD) was calculated as the ratio Koff/Kₒₙ.

B1: anti-CD123 antibody CSL362 (antibody, human IgG1, kappa, V domains shown)
VH: EVQLVQSGAEVKKPGESLKISCKGSGYSFTDYYMKWARQMPGKGLEWMGDIIPSNGATFYNQKFKGQVTISADKSISTTYLQWSSLKASDTAMYYCARSHLLRASWFAYWGQGTMVTVSS
VL: DIVMTQSPDSLAVSLGERATINCESSQSLLNSGNQKNYLTWYQQKPGQPPKPLIYWASTRESGVPDRFSGSGSGTDFTLTISSLQAEDVAVYYCQNDYSYPYTFGQGTKLEIKR
Binder B1 has a Kd of 0.599 nM, a koff of 7.93e-05 s⁻¹ and a kon of 132000 M⁻¹ s⁻¹.
